From ChEMBL document CHEMBL4706586, “Structure-activity relationships for a series of (Bis(4-fluorophenyl)methyl)sulfinylethyl-aminopiperidines and -piperidine amines at the dopamine transporter: Bioisosteric replacement of the piperazine improves metabolic stability” (Eur J Med Chem, 2020) come the findings set out here.

Molecules are shown by their SMILES.

A short description of experiment [1]: Selectivity ratio of Ki for sigma 1 receptor in guinea pig brain cortex membranes to Ki for DAT in Sprague-Dawley rat striatum membranes. It is filed as cell membranes.
For the next experiment, the species on record is Rattus norvegicus. Briefly: Selectivity ratio of Ki for SERT in Sprague-Dawley rat midbrain membranes to Ki for DAT in Sprague-Dawley rat striatum membranes.

Regarding `O=C(c1ccc(F)cc1F)N1CCC(NCCSC(c2ccc(F)cc2)c2ccc(F)cc2)CC1`, the figures for the Ratio Ki (in experiment [1]; in the experiment listed under Rattus norvegicus) were 0.69 and 9.87, respectively.

For `O=C(c1cc2ccccc2o1)N1CCC(NCCSC(c2ccc(F)cc2)c2ccc(F)cc2)CC1`, the values for the Ratio Ki (in experiment [1]; in the experiment listed under Rattus norvegicus) were 2.64 and 0.84, respectively.
